Experimental data from patent publication US20130116182A1, “Factor VIII B Cell Epitope Variants Having Reduced Immunogenicity” (priority 2009, published 2013).

Experiments:
[1] = tested on: CD4+ T cells; test: Staining with peptide-loaded DR1101 tetramers (tetramer guided epitope mapping); type: cell-based, human
[2] = target: HLA-DRB1*0101 (DR0101) (Homo sapiens, UniProt P01903+P01911, A100R/D57E/F55L/F60I/F76Y/I96L/L162R/M171V/P40L/Q125E/R42F/V115G/Y59C); test: HLA-DR peptide binding competition assay, DR0101; settings: concentration displacing 50% reference peptide, ± standard error of the mean, NB = no binding

CC[C@H](C)[C@H](NC(=O)[C@H](CC(N)=O)NC(=O)[C@H](CCC(=O)O)NC(=O)[C@@H](NC(=O)[C@H](CC(C)C)NC(=O)[C@H](Cc1ccc(O)cc1)NC(=O)[C@H](Cc1c[nH]c2ccccc12)NC(=O)[C@H](CO)NC(=O)[C@H](CCCNC(=N)N)NC(=O)[C@H](CC(N)=O)NC(=O)[C@@H](N)CCC(=O)O)[C@@H](C)O)C(=O)N[C@@H](CCC(N)=O)C(=O)N[C@@H](CCCNC(=N)N)C(=O)N[C@@H](Cc1ccccc1)C(=O)N[C@@H](CC(C)C)C(=O)N1CCC[C@H]1C(=O)N[C@@H](CC(N)=O)C(=O)N1CCC[C@H]1C(=O)N[C@@H](C)C(=O)NCC(=O)O [FVIII581-600]
tetramer staining of peptide-stimulated CD4+ T cells ([1]; inhibitor subject 1D): Weaker positive staining; also recorded: tetramer-positive
tetramer staining of peptide-stimulated CD4+ T cells ([1]; mild HA subject 41A): positive staining; also recorded: tetramer-positive
IC50 [2]: 38 ± 30 µM

“Also recorded” adds a separate entry of the source.
